From patent publication US20040014721A1, “Method for using tethered bis(polyhydroxyphenyls) and O-alkyl derivatives thereof in treating inflammatory conditions of the central nervous system” (Oklahoma Medical Research Foundation, priority 2002, published 2004)
Read-outs that look alike come from different tables or passages of the source.

Tested on: EOC-20 cells

## 7-Bis (4-hydroxy-3-methoxyphenyl)-1,6-heptadiene-3,5-dione [Curcumin]
Table III, MTT viability, by extrapolation through sublethal concentrations
  LD50: 120 μm
Table V
  LD50: Nontoxic
